From patent US11872215B2, “Site-specific antibody-drug glyconjugates and methods” (UNIVERSITY OF GEORGIA RESEARCH FOUNDATION, INC., priority 2014, dated 2024)

Test system: Daudi Burkett lymphoma cells, which express CD22
Assay: Cytotoxicity assay in Daudi cells (MTT)
Assay type: cell-based, Human
Details: varying concentrations, 48 h
Method: Next, the cytotoxic properties of the control and anti-CD22 antibodies were examined. The cell surface receptor CD22 is a clinically validated target for B-cell lymphoma that undergoes constitutive endocytosis, and therefore we thought it would be a suitable target for the development of ADCs. Thus, Daudi Burkett lymphoma cells, which express CD22, were incubated with varying concentrations of the anti-CD22 and control antibody with or without Dox modification. After 48 h, cell viability was measured by the activity of the enzymes that reduce tetrazole (MTT) to formazan.
Human B lymphoblast cell, Daudi (CCL-213, ATCC) were cultured in ATCC-formulated RPMI-1640 medium with L-glutamine (2 mM), sodium bicarbonate (1.5 g L^−1), glucose (4.5 g L^−1), HEPES (10 mM) and sodium pyruvate (1.0 mM). […]
Cytotoxicity of CD22-DOX treatments in Daudi cells was determined by use of the mTT uptake assay. […] The viability was measured by quantifying the cellular ability to reduce the water soluble tetrazolium dye 3-4,5-dimethylthiazole-2,5-diphenyl tetrazolium bromide (MTT) to its insoluble formazan salt as follows. […] The absorbance was measured at 560 nm using a microplate reader (BMG Labtech). Data points were collected in triplicate and expressed as normalized values for untreated control cells (100%).

Substance: DIBO-Doxorubicin conjugate [compound 4]
- cytotoxicity (cell viability by MTT reduction): only slightly less active than the unmodified drug
